In patent US20070010477A1, “Acyl homoserine lactones for inhibition of cell growth” (priority 2005, published 2007):

System: H630 cells
Test: Colony formation assay

## O=c1[nH]cc(F)c(=O)[nH]1 [FU, 5-fluorouracil]
H630 cells, FIG. 10 conditions
  inhibition of colony formation from combining IC50 amounts of 3-oxo-C12-HSL and FU: more than 90%
H630 cells, colony formation
  enhancement in the apparent IC50 in the presence of 23 μM 3-oxo-C12-HSL: ~12 fold
Homo sapiens, NCI-H630, 336 h, read-out: apparent IC50 of FU in the presence of 23 μM 3-oxo-C12-HSL
  pIC50: 7.10

pIC50: −log10 of the molar value.
